Source: US7893023B2, “Prodrugs activated by plasmin and their use in cancer chemotherapy” (priority 2000, dated 2011)

Tested on: B16-B16 melanoma cells
Test: Uptake by B16-B16 cells
Type: cell-based, murine
Conditions: B16-B16 cells incubated with the compound
Protocol: This experiment was conducted to evaluate whether the prodrugs were able to enter cultured cells in their non-hydrolyzed forms. In addition, it was desired to estimate the capacity of the prodrugs to induce detectable levels of products of their enzymatic hydrolysis (DNR and its amino acid derivatives) inside B16-B16 cells. N-Leu-Leu-DNR was chosen as a reference drug since it is the product that is directly liberated by plasmin from Compound II, DNR.
Confluent B16-B16 melanoma cell cultures were incubated in the presence of 17.24 μM dilutions in the serum-containing DMEM-F12 medium of either Compound I, DNR, Compound II, DNR, or N-Leu-Leu-DNR. At determined time points (1, 3, 5 and 24 hours), the cells were washed, harvested and lysed by ultrasonication. The concentration of the drugs and metabolites in the cell lysates were determined after extraction and HPLC analysis (See General Methods, Section J.). The amounts of anthracycline derivatives found per mg of protein were then compared.

D-Ala-Leu-Lys-Leu-Leu-DNR [Compound II, DNR]
N-Leu-Leu-DNR found inside cells: No traces
